## scFv variants of Ab-14 (light chain) against a SARS-CoV-2 spike peptide

Binding partner: SARS-CoV-2 spike HR2 peptide, sequence PDVDLGDISGINAS.

Each scFv is VH, the linker GGGGSGGGGSGGGGS, VL, as in the parent Ab-14, and differs from it in the CDRs of the light chain only.
VH: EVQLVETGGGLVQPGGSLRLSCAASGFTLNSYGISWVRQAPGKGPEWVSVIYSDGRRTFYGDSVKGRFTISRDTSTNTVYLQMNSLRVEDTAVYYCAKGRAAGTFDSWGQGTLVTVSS
VL: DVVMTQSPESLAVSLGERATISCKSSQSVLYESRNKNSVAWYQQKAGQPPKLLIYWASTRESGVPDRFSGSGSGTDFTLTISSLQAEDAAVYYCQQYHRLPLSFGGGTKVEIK

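Designed CDR sequences, proposed from the first random library and measured here. Group labels follow the data file (Ctrl: baseline library sampled from a position-specific scoring matrix, with some repeated check sequences; Rand: our label for a block that the file lists under HC and that is probably the random mutants of the ten best first-round binders; En: ensemble of fine-tuned language models; GP: Gaussian process model; HC: hill climbing; Gen: genetic algorithm; Gibbs: Gibbs sampling; a sequence that several methods proposed may carry one label only). Affinity was read by AlphaSeq, a pooled yeast mating assay with surface-displayed partners. Pairs that bind mate more often; barcode pairs of the diploids are counted by sequencing. A regression on co-assayed BCL2-family reference pairs converts the normalised counts of each replicate to an apparent Kd. The assay was run in six technical replicates.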

Each variant is given by its three light chain CDRs, as the data file delimits them; those of the parent are KSSQSVLYESRNKNSVA, WASTRES, QQYHRLPLS.
Kd is apparent (estimated from mating counts) and averaged on the log scale over replicates with a signal. Smaller is tighter.
An entry "not detected" has no value in the source: the pair was not observed among the diploids in any replicate. This suggests poor binding but is not conclusive.
Order: sorted from the lowest average up, undetected variants last.
In the paper, a design with two or fewer of six values counts as a poor binder.

CDR-L1,CDR-L2,CDR-L3,group,apparent Kd,detected
KLDGSDQYESRTKNSVA,DASTRES,QQYHRLPLS,GP_Gibbs,510 pM,6/6
KMEQGVLYESRNKNSVA,GASCRES,QQYHRLPLS,GP_HC,580 pM,6/6
KSSQSDLYESRNKNSVA,GASSRES,QQYHRLPLS,GP_HC,780 pM,6/6
KSSQSWLYESRNRNSVA,GASYRES,QQYHRLPLS,Rand,780 pM,6/6
KLSQSVLYEERNKNNVA,NASQRES,QQYHRLPLS,GP_Gen,840 pM,6/6
KFSQSVGYQTRNKNSVA,DASTRES,QQYHRLPLS,GP_Gibbs,910 pM,6/6
KSSQSVLYESRNKNSVA,GASTRES,QQYYRLPLS,Ctrl,920 pM,6/6
TLTQSVYMESHNKNSVA,DLSTRGS,QQYHRLPLS,En_HC,950 pM,6/6
KLPQSDLYEGRNSNSVA,HASTRFS,QQYHRLPLS,GP_Gibbs,960 pM,6/6
HISQMWMLESKNKNNVA,EESTRED,QSYFRLPLS,En_HC,970 pM,6/6
ALTFPPESVDHHMNNIA,STSKRCM,QQYARLPLS,En_Gibbs,1.4 nM,6/6
KISSMVKVGMTHGNSIA,EEATRSD,QQYHRLPLS,En_Gen,1.7 nM,6/6
KLEWSQLYESRNSNSVA,NASTREE,QQYHRLPLS,GP_Gibbs,1.7 nM,6/6
KSSESYLYESRNTNSVA,EASTRES,QQYHRLPLS,GP_HC,1.8 nM,6/6
SLRAMILDWDNKRQNIA,DVHMREQ,QQYNRLPIV,En_Gibbs,1.9 nM,6/6
NSSQSWLYESRNKNSVA,GASTRES,QQYHRLPLS,GP_HC,2.0 nM,6/6
KVPGSNLYESRNKNSVA,HASTRES,QDYHRLPLS,GP_Gibbs,2.3 nM,6/6
KSPWSVLYESRNKNSVA,HASTRED,QQYHRLPLS,GP_HC,2.6 nM,6/6
KSSQSVSYESRNKNSVA,GASTRES,QQYHRLPLS,Ctrl,2.7 nM,6/6
KFSQSVLYESRNKNSVA,DASTRED,QQYHRLPLS,Ctrl,2.7 nM,6/6
KLHISDGYEQRNKNSVA,SASTRSH,QQYHRLPLS,GP_Gibbs,3.2 nM,6/6
MISDLTMYGSRNVSSVA,DLSTRGS,QQYHRLPLS,En_HC,3.5 nM,6/6
KIGSGTNGEKFQSNSVA,QTSTREE,QQYDRLPLS,En_HC,3.7 nM,6/6
ALGTSTLEESRNKNSVA,EMSTRES,QSYNRLPLS,En_HC,5.0 nM,6/6
KLSQSWLYESRNKNSVA,GASFRES,QQYHRLPLS,GP_HC,5.1 nM,6/6
MLGDTVMEGMYSRNSVA,QEETRAE,QQYHHLPLS,En_HC,5.8 nM,6/6
KISFQYRYEQLSKNNIA,EAQTRLK,QQYHRLPLS,En_HC,7.2 nM,6/6
KLSQVTHSESRNKNSIA,EMVTREQ,QQYDRLPLS,En_HC,7.9 nM,6/6
ILEENSDDITEQQNSIA,ETNMVYS,QQYHRLPLA,En_Gibbs,8.9 nM,6/6
SLQYLPEESLIGASAIA,DVNIAVM,QQYSRLPLA,En_Gibbs,12 nM,6/6
KLYDEAENRYSTATNIA,DKKISLQ,QQYDRLPLS,En_Gibbs,14 nM,6/6
KITATMRFEQKISNNIA,EVTQRSK,QQYYRLPLS,En_Gen,20 nM,6/6
MISQVLNTLTKTGNNVA,DLAEREQ,QQYFRLPLS,En_Gen,20 nM,6/6
KSSQSVPMESRNKNSVA,WASVRES,QQYHRLPLS,Ctrl,27 nM,6/6
KISEVMNFAQFNKQSIA,EVSTRSQ,QSYNRLPLS,En_Gen,32 nM,5/6
MISQIYNMGQFAINSVA,QASQRNA,QQYDRLPLI,En_Gen,51 nM,6/6
KSSQSVMNESRNKNSVA,WASKREA,QQYSRLPLS,Ctrl,74 nM,6/6
KSEQSVLYESRNANSVA,WASTRES,QQYHRLPLS,Ctrl,82 nM,5/6
KSSQSVWYESRNKNSVA,WASTRES,QQYHRLPLS,Ctrl,90 nM,6/6
KSSQDVLRESLNKNAVA,WASTRES,QQYHRLPLS,Ctrl,90 nM,4/6
KSSQSVLEESRNKGSVA,DESTRES,QQYARLPLS,Ctrl,98 nM,6/6
KSSLSVLKESRNKNSVA,WASTREV,QQYHRLPLS,Ctrl,110 nM,5/6
KSSQGVLEESRNKNSVA,WASTRES,QQYHRLPLY,Ctrl,120 nM,5/6
HCSQSVMTESRNKNSVA,WASTRES,QAYHRLPLS,Ctrl,140 nM,5/6
MVSQLMIWGLHAKNSIA,EAQMRLN,QQYDRLPLF,En_Gen,180 nM,4/6
KSSQSVNYEKRNKNSVA,WAATRES,QQYHRLPLS,Ctrl,7.9 µM,1/6
MVSQSVLYESRNNNSVA,WASTRED,QQYMRLPLP,Ctrl,not detected,0/6
KSSQSWLYESRNFWSVA,GASTRES,QQGHRLPLS,Rand,not detected,0/6
KSSMLVLYESRNKNSVA,YASTREW,QQYHRLPLS,Ctrl,not detected,0/6
MVSQLMLWGLHAKNSIA,HAQMRLN,QQYDRLPLF,En_Gen,not detected,0/6

Again, the first 3 entries without any signal:

CDR-L1	CDR-L2	CDR-L3	group	apparent Kd	detected
MVSQSVLYESRNNNSVA	WASTRED	QQYMRLPLP	Ctrl	not detected	0/6
KSSQSWLYESRNFWSVA	GASTRES	QQGHRLPLS	Rand	not detected	0/6
KSSMLVLYESRNKNSVA	YASTREW	QQYHRLPLS	Ctrl	not detected	0/6

Values of this round are not directly comparable with the first-round values of the same sequences.
Nonspecific signal, from three strains lacking the peptide, appeared in 4% of pairings of all light chain designs, centred on 430 nM (5% of these signals below 38 nM); values are not corrected for it.
Of ten entries with the parent sequence, four were seen in most replicates (averages 2.2 nM to 240 nM), three in one and three in none, so single entries are noisy.

Reference: Li et al. 2023, doi:10.1038/s41467-023-39022-2. File: FLAb, binding data.